According to publication PMC7538598 (Scientific Reports, 2020):
Values joined by “and” are separate entries in the source; they are usually repeats but may differ in a detail not shown here. Equal values may be shown once.

Target: T1, α1-GFP GlyR (Homo sapiens, UniProt P23415)
T1 construct: made in house; host or cells: Xenopus laevis oocytes injected with cRNA; total solubilized membranes in SMA nanodiscs
T1 sequence (P23415 29-457): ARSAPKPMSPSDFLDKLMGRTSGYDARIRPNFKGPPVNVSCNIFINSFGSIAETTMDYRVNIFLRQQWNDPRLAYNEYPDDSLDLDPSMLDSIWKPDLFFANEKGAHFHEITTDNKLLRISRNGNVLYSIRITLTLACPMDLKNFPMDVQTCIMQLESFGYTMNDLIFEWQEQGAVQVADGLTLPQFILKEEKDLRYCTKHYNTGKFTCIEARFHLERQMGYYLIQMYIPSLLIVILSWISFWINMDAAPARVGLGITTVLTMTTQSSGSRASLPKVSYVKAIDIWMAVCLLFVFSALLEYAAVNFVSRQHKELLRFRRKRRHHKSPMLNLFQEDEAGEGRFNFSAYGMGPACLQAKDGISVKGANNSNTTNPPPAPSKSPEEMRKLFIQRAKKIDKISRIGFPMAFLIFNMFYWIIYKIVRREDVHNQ
Test: MST of α1-GFP GlyR SMA-copolymer nanodiscs (total solubilized membranes) from X. laevis oocytes
Assay type: binding
Experimental: cRNA was synthesized using the AmpliCap-Max T7 High Yield Message Maker Kit (Cellscript, Madison, WI, USA). Therefore GFP-GlyR α1 in pCDNA3.1(+) was linearized with NotI. Oozytes were surgically taken from female X. laevis after anesthesia with 0.1% Tricaine in water. For SMA-copolymer solubilization, 300–400 oocytes were injected with 50 ng in a volume of 50.6 nl of cRNA. After injection the oocytes were incubated in ND-96 solution (96 mM NaCl, 2 mM KCl, 1 mM CaCl2, 1 mM MgCl2, 5 mM HEPES, pH 7.4) at 18 °C for 1–2 days.

Question: What does the source list for `NCCS(=O)(=O)O` [taurine]?
Answer: Hill coefficient (MST): 0.8; MST signal amplitude (mean ± SD): 1.32 ± 0.17 and 1.32 ± 0.14
